PubChem BioAssay (NCI)
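Values below derive from 48-hour exposures of cells grown in 96-well plates, with endpoints linearly interpolated between the two concentrations bracketing the appropriate inhibition level. TGI marks complete inhibition of growth.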

Key:
Test in all cases: NCI anticancer screen, dose series, 48 h
RPMI-8226 leukemia = test system: RPMI-8226 leukemia
MALME-3M melanoma = test system: MALME-3M melanoma
A549 NSCLC = test system: A549 NSCLC
HOP-92 NSCLC = test system: HOP-92 NSCLC
COLO 205 colon = test system: COLO 205 colon
SW-620 colon = test system: SW-620 colon
U251 CNS = test system: U251 CNS
SN12C renal = test system: SN12C renal
OVCAR-4 ovarian = test system: OVCAR-4 ovarian
LOX IMVI melanoma = test system: LOX IMVI melanoma
HCT-15 colon = test system: HCT-15 colon
HL-60(TB) leukemia = test system: HL-60(TB) leukemia
T-47D breast = test system: T-47D breast
M14 melanoma = test system: M14 melanoma
HOP-62 NSCLC = test system: HOP-62 NSCLC
TK-10 renal = test system: TK-10 renal
UACC-257 melanoma = test system: UACC-257 melanoma
NCI/ADR-RES ovarian = test system: NCI/ADR-RES ovarian
OVCAR-3 ovarian = test system: OVCAR-3 ovarian
NCI-H322M lung = test system: NCI-H322M lung
MDA-MB-435 = test system: MDA-MB-435
MDA-N = test system: MDA-N
SK-MEL-28 melanoma = test system: SK-MEL-28 melanoma
786-0 renal = test system: 786-0 renal
DU-145 prostate = test system: DU-145 prostate
MCF7 breast = test system: MCF7 breast
OVCAR-8 ovarian = test system: OVCAR-8 ovarian
SK-OV-3 ovarian = test system: SK-OV-3 ovarian
HCT-116 colon = test system: HCT-116 colon
SR leukemia = test system: SR leukemia
K-562 leukemia = test system: K-562 leukemia
SK-MEL-2 melanoma = test system: SK-MEL-2 melanoma
UACC-62 melanoma = test system: UACC-62 melanoma
SF-268 CNS = test system: SF-268 CNS
SF-539 CNS = test system: SF-539 CNS
PC-3 prostate = test system: PC-3 prostate
CCRF-CEM leukemia = test system: CCRF-CEM leukemia
OVCAR-5 ovarian = test system: OVCAR-5 ovarian
MOLT-4 leukemia = test system: MOLT-4 leukemia
HT29 colon = test system: HT29 colon
HS 578T breast = test system: HS 578T breast
ACHN renal = test system: ACHN renal
MDA-MB-231 breast = test system: MDA-MB-231 breast
SF-295 CNS = test system: SF-295 CNS
UO-31 renal = test system: UO-31 renal
IGROV1 ovarian = test system: IGROV1 ovarian
SNB-75 CNS = test system: SNB-75 CNS
NCI-H226 lung = test system: NCI-H226 lung
KM12 colon = test system: KM12 colon
SK-MEL-5 melanoma = test system: SK-MEL-5 melanoma
NCI-H23 lung = test system: NCI-H23 lung
HCC-2998 colon = test system: HCC-2998 colon
EKVX NSCLC = test system: EKVX NSCLC

Measured: TGI

CCOP1(=O)N=C(NC2=NC(C(F)(F)F)(C(F)(F)F)N=C(C(F)(F)F)O2)N(C)C1(C)C (stereo not drawn)
> 100 µM: all assays above
